Earlier results in patent publication US20140256766A1, “TRANSMUCOSAL DRUG DELIVERY SYSTEM” (priority 2013, published 2014).
This is a selection: effects in other tests are not listed, and their absence says nothing.

Details: current transmucosal therapy, lollipop

**Q.** For `CCC(=O)N(c1ccccc1)C1CCN(CCc2ccccc2)CC1`, which “time to reach maximum plasma concentrations” value is on record?
**A.** The value was “over 20 minutes”.
